Consider 1 molecule from patent US12187706B2, “NLRP3 modulators” (INNATE TUMOR IMMUNITY, INC., priority 2019, dated 2025).

Sequences of proteins named here, by UniProt entry; tags and fusion partners are left off.
UniProt Q96P20, whole entry: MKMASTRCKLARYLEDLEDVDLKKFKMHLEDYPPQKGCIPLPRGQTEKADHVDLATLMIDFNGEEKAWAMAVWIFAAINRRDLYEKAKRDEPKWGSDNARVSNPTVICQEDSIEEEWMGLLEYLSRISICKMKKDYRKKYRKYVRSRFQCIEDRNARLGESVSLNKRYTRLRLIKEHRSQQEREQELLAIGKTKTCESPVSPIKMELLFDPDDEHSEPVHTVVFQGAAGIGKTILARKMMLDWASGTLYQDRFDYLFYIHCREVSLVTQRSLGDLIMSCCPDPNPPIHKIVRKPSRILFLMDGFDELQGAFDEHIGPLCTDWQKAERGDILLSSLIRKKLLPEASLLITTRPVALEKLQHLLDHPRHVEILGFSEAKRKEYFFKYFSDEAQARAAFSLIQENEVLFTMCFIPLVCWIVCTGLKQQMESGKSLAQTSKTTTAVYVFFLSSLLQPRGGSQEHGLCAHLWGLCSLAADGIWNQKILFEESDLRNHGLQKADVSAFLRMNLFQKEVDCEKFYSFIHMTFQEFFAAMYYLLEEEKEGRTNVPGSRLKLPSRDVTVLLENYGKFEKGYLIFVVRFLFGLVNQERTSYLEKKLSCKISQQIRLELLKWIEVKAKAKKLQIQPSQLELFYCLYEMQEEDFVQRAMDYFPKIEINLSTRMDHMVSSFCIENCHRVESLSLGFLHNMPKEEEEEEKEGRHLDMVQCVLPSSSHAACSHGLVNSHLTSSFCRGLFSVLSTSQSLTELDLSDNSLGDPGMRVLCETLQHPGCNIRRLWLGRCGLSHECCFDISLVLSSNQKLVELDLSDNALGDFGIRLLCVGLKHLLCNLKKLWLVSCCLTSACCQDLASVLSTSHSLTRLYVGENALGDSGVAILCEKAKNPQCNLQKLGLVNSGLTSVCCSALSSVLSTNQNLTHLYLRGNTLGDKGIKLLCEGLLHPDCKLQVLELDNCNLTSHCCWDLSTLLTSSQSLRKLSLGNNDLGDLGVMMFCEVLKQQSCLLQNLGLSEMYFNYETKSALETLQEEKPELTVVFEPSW

The assay addresses NLRP3 (Homo sapiens, UniProt Q96P20). As to the kind of experiment: Measurement of IL-1β production in PMA-differentiated THP-1 cells (NLRP3 hIL1B). The note with it: read-out: NLRP3 hIL1B EC50. The class given is cell-based.

For `Nc1nc(NCCO)c2c(Cl)cc(-c3cc[nH]n3)cc2n1`, the EC50 was determined as 1080 nM.

One may read the EC50 as the concentration needed to bring the measured effect to its halfway point.
